Antibody variant affinities, Ab-14 light chain, assay B

Reference: Li et al. 2023, doi:10.1038/s41467-023-39022-2. File: FLAb, binding data.

All variants were tested on one target, the spike HR2 peptide PDVDLGDISGINAS (SARS-CoV-2).

The variants keep the heavy chain, the linker and the frameworks of Ab-14 (scFv order VH, a 15-residue (Gly4Ser)3 linker, VL).
VH: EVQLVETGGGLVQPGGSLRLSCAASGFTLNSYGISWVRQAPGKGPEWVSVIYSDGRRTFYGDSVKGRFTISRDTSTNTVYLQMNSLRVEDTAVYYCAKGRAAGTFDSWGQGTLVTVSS
VL: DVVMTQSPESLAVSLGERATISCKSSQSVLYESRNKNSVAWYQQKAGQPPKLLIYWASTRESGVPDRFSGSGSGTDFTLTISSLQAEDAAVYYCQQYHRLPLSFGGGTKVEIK

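The starting antibody came from a phage panning campaign against this peptide. The variants were designed computationally from a first round of random CDR variants and then made and measured. Their group label is 14L_En_Gen (En: ensemble of fine-tuned language models; Gen: genetic algorithm). In AlphaSeq, yeast of one mating type display the scFv and yeast of the other type display the target. Binding brings cells together so that they mate, and sequencing counts the barcode pairs among the diploids. Read counts were normalised to the haploid input and turned into Kd by a linear fit to BCL2-family pairs of known affinity, for each replicate. Mating was done six times.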

Each variant is given by its three light chain CDRs, as the data file delimits them; those of the parent are KSSQSVLYESRNKNSVA, WASTRES, QQYHRLPLS.
Values are log10 of the apparent Kd in nM; lower means stronger binding.
"n.d." means that the variant was in the library but no mating with the target was seen in that replicate; the authors take this as a sign of poor binding, and no number exists.
Nonspecific signal, from three strains lacking the peptide, appeared in 4% of pairings of all light chain designs, centred on 2.64 (5% of these signals below 1.59); values are not corrected for it. The control count says in how many pairings with the empty strains this scFv gave a signal, with their mean in brackets.
The authors' rule: three or more of the six replicates give a measured affinity, fewer mean a poor binder.
A sequence measured in both rounds can read differently, since the two assays cover different ranges.

CDR-L1 | CDR-L2 | CDR-L3 | log10 Kd, replicates | empty controls
MISQMINMGSFAINSVA | QASIRCN | QQYDRLPLM | n.d. / n.d. / 1.75 / n.d. / n.d. / 2.02 | 0 of 18
IVSQLMLWGWHAKNSIA | EAQTRIQ | QQYDRLPLF | n.d. / n.d. / n.d. / n.d. / n.d. / n.d. | 0 of 18
HIGLSTMLEEIVRNSVA | NNSTRED | QQYDRLPLS | 2.26 / 2.57 / n.d. / 1.22 / 2.64 / 1.79 | 0 of 18
MISQLMNMGQFAINSVA | QAEIRNA | QQYDRLPLM | n.d. / n.d. / n.d. / n.d. / n.d. / n.d. | 0 of 18
KISYLQNQTFEESNNVA | EMVTREK | QQYHRLPLS | 1.62 / 0.69 / 1.63 / 1.34 / 0.42 / 0.86 | 1 of 18 (1.96)
MISSISSMGQFAKNSVA | QASLRND | QQYDRLPLT | 1.10 / 0.52 / 0.68 / 0.37 / 0.54 / 0.88 | 0 of 18
TISQLYNMGQFAINSVA | QASERCN | QQYDRLPLI | 1.86 / 0.61 / 0.76 / 1.13 / 0.87 / 1.36 | 1 of 18 (4.22)
KLSGIMRLEQKVSNSIA | EMATRGS | QQYDRLPLS | 1.27 / 1.43 / 1.24 / 1.08 / 1.22 / 1.48 | 0 of 18
TIPTLMGHVSKHTNNVA | DQQTRED | QQYNRLPLS | 0.10 / 0.13 / 0.02 / -0.21 / -0.04 / 0.05 | 0 of 18
KISQMQRVGQTHGNSIA | EEQTRAK | QQYHRLPLS | 0.61 / 0.70 / 0.29 / 0.26 / 0.35 / 0.41 | 0 of 18
MISQLYNMGQFAINSVA | QASIRNQ | QQYDRLPLM | 1.32 / 0.78 / 1.62 / 0.95 / 1.03 / 0.86 | 1 of 18 (2.43)
MISNVMNTLTRYGNNVA | DLTERER | QQYFRLPLS | n.d. / 1.77 / 2.12 / 2.03 / 2.05 / 2.87 | 1 of 18 (3.62)
KVSEFMRGLMKMQDSIA | DNVTRSN | QQYDRLPLS | n.d. / 3.26 / n.d. / 2.49 / 2.69 / 2.91 | 1 of 18 (2.92)
HMSMITLMGSRTRNSVA | QMTTREN | QQYDRLPLA | 1.68 / 1.26 / 1.11 / 2.31 / 2.02 / 1.56 | 0 of 18
QIGMLLNFESKVGNNVA | QMETRVN | QQYHHLPLS | 1.48 / 1.54 / 0.90 / n.d. / 1.52 / 1.96 | 0 of 18
KLSMITGHMHMSKNNVA | EMVTRVN | QQYNRLPLS | -0.16 / -0.01 / -0.18 / -0.10 / 0.06 / 0.41 | 1 of 18 (2.61)
MFSQMTGLGMKASNSVA | QASMRFN | QQYHRLPLI | 1.14 / 0.78 / 1.69 / 0.68 / 0.54 / 0.72 | 0 of 18
QIYQAMHTLSQTKDNVA | DVNERGR | QQYFRLPLS | 0.40 / 0.42 / 0.37 / 0.11 / 0.45 / 0.49 | 2 of 18 (2.52)
KLSGIMRVEMKNKSNIA | EMTTRGS | QQYDRLPLS | 0.93 / 1.54 / 1.85 / 1.88 / 1.61 / 1.55 | 1 of 18 (3.89)
KVSEFMKGLMMRTDSIA | DNNTRGA | QQYDRLPLS | 1.19 / 1.30 / 1.42 / 1.46 / 1.49 / 1.05 | 1 of 18 (3.31)
HITYGMMVVGRHSKSIA | QAETRAK | QQYDRLPLI | 1.51 / 1.72 / 1.85 / 0.97 / 1.38 / 1.76 | 0 of 18
MISQLINMGSFAINSVA | QASLRNE | QQYDRLPLM | 3.43 / 2.57 / 2.28 / 1.86 / 2.51 / 2.06 | 1 of 18 (2.27)
TISQMSTLFSMSINNVA | EVSTREE | QQYDRLPLA | 1.02 / 1.37 / 0.88 / 0.86 / 0.81 / 1.67 | 0 of 18
MISQLMNLGQFAINSVA | QASIRNH | QQYDRLPLA | n.d. / 1.15 / 2.21 / 2.44 / n.d. / 2.34 | 0 of 18
MVTQMAMTGMRNKRSVA | NAEMREN | QQYHRLPLI | 0.99 / 1.08 / 1.14 / 0.98 / 1.04 / 1.41 | 2 of 18 (3.68)
MISQLNNMGQFAINSVA | QASLRNE | QQYDRLPLI | 0.83 / 1.08 / 0.89 / 0.44 / 0.79 / 1.62 | 1 of 18 (2.01)
KISMLKNQTFEQSNNVA | EMVTREK | QQYNRLPLS | 1.57 / 1.58 / 1.64 / 0.97 / 2.11 / 2.07 | 0 of 18
MISNVMNTLTRYGNNVA | DLQNRED | QQYFRLPLS | 0.84 / 0.75 / 0.72 / 0.37 / 0.59 / 0.79 | 1 of 18 (2.95)
HLSMLALSESVKHNNVA | ENSTREN | QQYDRLPLS | 2.24 / 2.42 / n.d. / n.d. / n.d. / n.d. | 1 of 18 (2.92)
TLYGLTLSMSINKNSVA | EMTTREN | QQYDRLPLA | 1.37 / 1.14 / 0.65 / 0.51 / 0.25 / 0.95 | 0 of 18
HMSAVTMMGMRQRNSVA | QMTMREN | QQYDRLPLA | 3.09 / 2.71 / 0.87 / 2.19 / 1.64 / 1.79 | 1 of 18 (2.61)
MISQLYNMGTFAINSVA | QASIRNM | QQYDRLPLA | 0.11 / -0.20 / -0.58 / -0.49 / -0.13 / -0.55 | 0 of 18
HMSMLTLQGMRARNSVA | QMTTREN | QQYDRLPLS | 0.47 / 0.83 / 0.53 / 0.82 / 0.83 / 0.74 | 0 of 18
KLSMVTGHLSMAKNNVA | EMETREK | QQYNRLPLS | 0.32 / 0.21 / 0.11 / 0.32 / 0.02 / 0.19 | 0 of 18
KLTHVTGTEKVHGNNVA | EMETRER | QQYNRLPLA | 1.86 / 0.71 / 0.76 / 0.25 / 0.43 / 0.66 | 0 of 18
IVSQLMLWGYHAKNSIA | EAEKRLN | QQYHHLPLI | n.d. / 1.23 / 0.44 / n.d. / n.d. / n.d. | 0 of 18
KIGMTLNTLMHQKNNVA | DLVTREN | QQYHRLPLS | 1.15 / 0.59 / 1.22 / 1.18 / 0.90 / 1.26 | 0 of 18
HITYGMQVAGRHSKSIA | QAETREK | QQYDRLPLI | 0.89 / 1.25 / 1.15 / 1.23 / 1.27 / 1.39 | 1 of 18 (3.10)
TISQMSTLFSQSINNVA | EVSERLN | QQYDRLPLS | 1.02 / 0.88 / 1.21 / 1.20 / 1.23 / 1.23 | 1 of 18 (4.00)
TISQMTSLFSQSINNVA | EVSTRME | QQYDRLPLA | 0.82 / 0.88 / 0.98 / 1.07 / 1.42 / 1.46 | 0 of 18
MISQLYNMGTFAINSVA | QASQRNA | QQYDRLPLM | 0.81 / 1.06 / 1.66 / 1.72 / 1.19 / 1.68 | 0 of 18
KLTSLTGTEKVRGNNVA | EMETREN | QQYNRLPLS | 0.92 / 0.23 / 0.56 / 0.15 / 0.24 / 1.12 | 0 of 18
QIYQAMHNLMQKKNNVA | DVNERGQ | QQYFRLPLS | -0.02 / 0.17 / -0.08 / 0.18 / 0.02 / 0.21 | 0 of 18
IVSQLMIWGMHVKNSIA | EAQTRVN | QQYDRLPLF | n.d. / n.d. / n.d. / n.d. / n.d. / n.d. | 0 of 18

Picked from the list: the 3 lowest averages where every replicate gave a value.

{"CDR-L1": "MISQLYNMGTFAINSVA", "CDR-L2": "QASIRNM", "CDR-L3": "QQYDRLPLA", "log10 Kd, replicates": "0.11 / -0.20 / -0.58 / -0.49 / -0.13 / -0.55", "empty controls": "0 of 18"}
{"CDR-L1": "KLSMITGHMHMSKNNVA", "CDR-L2": "EMVTRVN", "CDR-L3": "QQYNRLPLS", "log10 Kd, replicates": "-0.16 / -0.01 / -0.18 / -0.10 / 0.06 / 0.41", "empty controls": "1 of 18 (2.61)"}
{"CDR-L1": "TIPTLMGHVSKHTNNVA", "CDR-L2": "DQQTRED", "CDR-L3": "QQYNRLPLS", "log10 Kd, replicates": "0.10 / 0.13 / 0.02 / -0.21 / -0.04 / 0.05", "empty controls": "0 of 18"}